The text below walks through data of publication PMC10086585.

Chains of the proteins cited; added tags and fusions are not shown. Chains listed by the source or under a name are the forms on record and can include a tag or linker.
mouse laminin‐I (mouse), one chain, as listed by the source, chain 2 of 3: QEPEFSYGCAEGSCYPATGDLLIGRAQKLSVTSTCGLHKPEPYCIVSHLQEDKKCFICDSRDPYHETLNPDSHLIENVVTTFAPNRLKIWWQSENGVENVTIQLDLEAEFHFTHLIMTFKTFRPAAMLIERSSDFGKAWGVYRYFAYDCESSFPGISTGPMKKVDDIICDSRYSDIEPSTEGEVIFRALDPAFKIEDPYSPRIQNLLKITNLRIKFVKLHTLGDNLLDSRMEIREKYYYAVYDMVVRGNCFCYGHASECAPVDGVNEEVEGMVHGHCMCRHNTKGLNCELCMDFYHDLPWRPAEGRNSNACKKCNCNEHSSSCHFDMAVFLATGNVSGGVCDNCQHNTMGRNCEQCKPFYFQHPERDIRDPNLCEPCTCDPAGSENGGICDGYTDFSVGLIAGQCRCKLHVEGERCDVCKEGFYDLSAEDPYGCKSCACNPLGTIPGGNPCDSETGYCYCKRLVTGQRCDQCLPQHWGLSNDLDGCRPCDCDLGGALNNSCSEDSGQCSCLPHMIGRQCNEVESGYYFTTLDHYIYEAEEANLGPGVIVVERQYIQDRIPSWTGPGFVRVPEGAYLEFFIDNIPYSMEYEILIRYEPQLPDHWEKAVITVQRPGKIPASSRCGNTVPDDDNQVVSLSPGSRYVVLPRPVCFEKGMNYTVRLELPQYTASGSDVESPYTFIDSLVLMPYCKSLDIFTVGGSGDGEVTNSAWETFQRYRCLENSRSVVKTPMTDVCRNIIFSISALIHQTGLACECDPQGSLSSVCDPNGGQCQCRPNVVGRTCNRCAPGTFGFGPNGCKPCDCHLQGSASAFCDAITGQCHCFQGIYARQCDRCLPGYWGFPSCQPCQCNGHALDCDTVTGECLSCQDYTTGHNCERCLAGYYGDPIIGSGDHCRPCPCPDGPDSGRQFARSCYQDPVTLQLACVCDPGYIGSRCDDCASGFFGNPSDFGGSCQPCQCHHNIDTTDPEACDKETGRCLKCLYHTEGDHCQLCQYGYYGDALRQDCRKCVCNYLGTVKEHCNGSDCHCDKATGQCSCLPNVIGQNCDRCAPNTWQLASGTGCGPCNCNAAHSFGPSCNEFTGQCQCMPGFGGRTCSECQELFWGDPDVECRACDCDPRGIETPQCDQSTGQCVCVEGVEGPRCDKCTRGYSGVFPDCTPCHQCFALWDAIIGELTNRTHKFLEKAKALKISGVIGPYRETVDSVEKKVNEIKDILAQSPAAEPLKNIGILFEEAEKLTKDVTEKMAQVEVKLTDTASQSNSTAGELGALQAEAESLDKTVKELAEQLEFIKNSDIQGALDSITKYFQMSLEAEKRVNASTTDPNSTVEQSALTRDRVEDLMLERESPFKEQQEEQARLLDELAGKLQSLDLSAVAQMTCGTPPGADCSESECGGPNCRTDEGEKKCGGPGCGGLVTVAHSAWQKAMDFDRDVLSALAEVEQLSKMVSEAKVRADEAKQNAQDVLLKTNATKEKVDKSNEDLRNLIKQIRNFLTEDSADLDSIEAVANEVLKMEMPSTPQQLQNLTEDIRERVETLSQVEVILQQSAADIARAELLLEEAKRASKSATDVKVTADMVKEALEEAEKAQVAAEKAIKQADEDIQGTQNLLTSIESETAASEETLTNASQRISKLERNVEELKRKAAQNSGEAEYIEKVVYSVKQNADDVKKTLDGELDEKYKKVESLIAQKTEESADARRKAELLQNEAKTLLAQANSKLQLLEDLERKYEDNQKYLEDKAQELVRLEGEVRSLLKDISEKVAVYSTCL
mouse laminin‐I (mouse), one chain, as listed by the source, chain 3 of 3: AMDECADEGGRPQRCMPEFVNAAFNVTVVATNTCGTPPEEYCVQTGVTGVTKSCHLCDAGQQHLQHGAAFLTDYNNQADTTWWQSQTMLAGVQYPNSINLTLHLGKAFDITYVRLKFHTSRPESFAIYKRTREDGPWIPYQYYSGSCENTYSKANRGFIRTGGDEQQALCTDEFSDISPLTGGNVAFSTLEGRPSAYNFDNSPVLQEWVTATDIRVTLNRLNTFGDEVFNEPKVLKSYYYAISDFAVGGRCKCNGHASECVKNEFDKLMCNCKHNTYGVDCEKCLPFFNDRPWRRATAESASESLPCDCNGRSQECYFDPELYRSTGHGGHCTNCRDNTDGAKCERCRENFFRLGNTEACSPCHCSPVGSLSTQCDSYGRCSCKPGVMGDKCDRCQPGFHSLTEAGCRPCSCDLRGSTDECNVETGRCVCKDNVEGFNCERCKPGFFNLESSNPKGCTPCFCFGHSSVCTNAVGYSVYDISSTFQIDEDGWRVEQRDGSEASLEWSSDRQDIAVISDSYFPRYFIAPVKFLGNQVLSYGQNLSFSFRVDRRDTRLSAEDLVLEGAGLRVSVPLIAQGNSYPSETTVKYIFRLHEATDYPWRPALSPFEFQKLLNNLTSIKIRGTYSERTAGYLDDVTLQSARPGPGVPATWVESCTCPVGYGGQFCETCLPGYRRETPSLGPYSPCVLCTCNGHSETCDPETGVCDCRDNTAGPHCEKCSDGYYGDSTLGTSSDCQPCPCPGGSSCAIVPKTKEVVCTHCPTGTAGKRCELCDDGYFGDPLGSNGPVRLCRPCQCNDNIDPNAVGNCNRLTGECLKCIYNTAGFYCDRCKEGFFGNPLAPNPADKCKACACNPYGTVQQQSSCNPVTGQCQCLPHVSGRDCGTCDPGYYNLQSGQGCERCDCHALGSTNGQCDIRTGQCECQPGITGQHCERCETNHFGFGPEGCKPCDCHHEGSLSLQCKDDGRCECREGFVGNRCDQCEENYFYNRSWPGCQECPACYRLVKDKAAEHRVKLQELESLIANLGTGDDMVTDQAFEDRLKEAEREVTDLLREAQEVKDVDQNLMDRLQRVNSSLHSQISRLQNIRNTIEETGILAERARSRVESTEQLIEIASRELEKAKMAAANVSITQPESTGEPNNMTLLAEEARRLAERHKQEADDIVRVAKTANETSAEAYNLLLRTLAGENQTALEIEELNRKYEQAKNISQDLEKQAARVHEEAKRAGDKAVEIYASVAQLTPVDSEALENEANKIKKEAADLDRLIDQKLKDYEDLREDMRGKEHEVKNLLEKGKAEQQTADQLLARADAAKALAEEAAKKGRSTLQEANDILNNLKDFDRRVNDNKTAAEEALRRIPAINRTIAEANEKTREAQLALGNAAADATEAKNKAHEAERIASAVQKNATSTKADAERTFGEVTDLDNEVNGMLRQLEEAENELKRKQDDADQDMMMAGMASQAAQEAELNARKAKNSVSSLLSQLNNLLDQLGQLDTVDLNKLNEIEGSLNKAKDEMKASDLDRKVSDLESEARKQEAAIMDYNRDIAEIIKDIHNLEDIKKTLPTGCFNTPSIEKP
mouse laminin‐I (mouse), one chain, as listed by the source, chain 1 of 3: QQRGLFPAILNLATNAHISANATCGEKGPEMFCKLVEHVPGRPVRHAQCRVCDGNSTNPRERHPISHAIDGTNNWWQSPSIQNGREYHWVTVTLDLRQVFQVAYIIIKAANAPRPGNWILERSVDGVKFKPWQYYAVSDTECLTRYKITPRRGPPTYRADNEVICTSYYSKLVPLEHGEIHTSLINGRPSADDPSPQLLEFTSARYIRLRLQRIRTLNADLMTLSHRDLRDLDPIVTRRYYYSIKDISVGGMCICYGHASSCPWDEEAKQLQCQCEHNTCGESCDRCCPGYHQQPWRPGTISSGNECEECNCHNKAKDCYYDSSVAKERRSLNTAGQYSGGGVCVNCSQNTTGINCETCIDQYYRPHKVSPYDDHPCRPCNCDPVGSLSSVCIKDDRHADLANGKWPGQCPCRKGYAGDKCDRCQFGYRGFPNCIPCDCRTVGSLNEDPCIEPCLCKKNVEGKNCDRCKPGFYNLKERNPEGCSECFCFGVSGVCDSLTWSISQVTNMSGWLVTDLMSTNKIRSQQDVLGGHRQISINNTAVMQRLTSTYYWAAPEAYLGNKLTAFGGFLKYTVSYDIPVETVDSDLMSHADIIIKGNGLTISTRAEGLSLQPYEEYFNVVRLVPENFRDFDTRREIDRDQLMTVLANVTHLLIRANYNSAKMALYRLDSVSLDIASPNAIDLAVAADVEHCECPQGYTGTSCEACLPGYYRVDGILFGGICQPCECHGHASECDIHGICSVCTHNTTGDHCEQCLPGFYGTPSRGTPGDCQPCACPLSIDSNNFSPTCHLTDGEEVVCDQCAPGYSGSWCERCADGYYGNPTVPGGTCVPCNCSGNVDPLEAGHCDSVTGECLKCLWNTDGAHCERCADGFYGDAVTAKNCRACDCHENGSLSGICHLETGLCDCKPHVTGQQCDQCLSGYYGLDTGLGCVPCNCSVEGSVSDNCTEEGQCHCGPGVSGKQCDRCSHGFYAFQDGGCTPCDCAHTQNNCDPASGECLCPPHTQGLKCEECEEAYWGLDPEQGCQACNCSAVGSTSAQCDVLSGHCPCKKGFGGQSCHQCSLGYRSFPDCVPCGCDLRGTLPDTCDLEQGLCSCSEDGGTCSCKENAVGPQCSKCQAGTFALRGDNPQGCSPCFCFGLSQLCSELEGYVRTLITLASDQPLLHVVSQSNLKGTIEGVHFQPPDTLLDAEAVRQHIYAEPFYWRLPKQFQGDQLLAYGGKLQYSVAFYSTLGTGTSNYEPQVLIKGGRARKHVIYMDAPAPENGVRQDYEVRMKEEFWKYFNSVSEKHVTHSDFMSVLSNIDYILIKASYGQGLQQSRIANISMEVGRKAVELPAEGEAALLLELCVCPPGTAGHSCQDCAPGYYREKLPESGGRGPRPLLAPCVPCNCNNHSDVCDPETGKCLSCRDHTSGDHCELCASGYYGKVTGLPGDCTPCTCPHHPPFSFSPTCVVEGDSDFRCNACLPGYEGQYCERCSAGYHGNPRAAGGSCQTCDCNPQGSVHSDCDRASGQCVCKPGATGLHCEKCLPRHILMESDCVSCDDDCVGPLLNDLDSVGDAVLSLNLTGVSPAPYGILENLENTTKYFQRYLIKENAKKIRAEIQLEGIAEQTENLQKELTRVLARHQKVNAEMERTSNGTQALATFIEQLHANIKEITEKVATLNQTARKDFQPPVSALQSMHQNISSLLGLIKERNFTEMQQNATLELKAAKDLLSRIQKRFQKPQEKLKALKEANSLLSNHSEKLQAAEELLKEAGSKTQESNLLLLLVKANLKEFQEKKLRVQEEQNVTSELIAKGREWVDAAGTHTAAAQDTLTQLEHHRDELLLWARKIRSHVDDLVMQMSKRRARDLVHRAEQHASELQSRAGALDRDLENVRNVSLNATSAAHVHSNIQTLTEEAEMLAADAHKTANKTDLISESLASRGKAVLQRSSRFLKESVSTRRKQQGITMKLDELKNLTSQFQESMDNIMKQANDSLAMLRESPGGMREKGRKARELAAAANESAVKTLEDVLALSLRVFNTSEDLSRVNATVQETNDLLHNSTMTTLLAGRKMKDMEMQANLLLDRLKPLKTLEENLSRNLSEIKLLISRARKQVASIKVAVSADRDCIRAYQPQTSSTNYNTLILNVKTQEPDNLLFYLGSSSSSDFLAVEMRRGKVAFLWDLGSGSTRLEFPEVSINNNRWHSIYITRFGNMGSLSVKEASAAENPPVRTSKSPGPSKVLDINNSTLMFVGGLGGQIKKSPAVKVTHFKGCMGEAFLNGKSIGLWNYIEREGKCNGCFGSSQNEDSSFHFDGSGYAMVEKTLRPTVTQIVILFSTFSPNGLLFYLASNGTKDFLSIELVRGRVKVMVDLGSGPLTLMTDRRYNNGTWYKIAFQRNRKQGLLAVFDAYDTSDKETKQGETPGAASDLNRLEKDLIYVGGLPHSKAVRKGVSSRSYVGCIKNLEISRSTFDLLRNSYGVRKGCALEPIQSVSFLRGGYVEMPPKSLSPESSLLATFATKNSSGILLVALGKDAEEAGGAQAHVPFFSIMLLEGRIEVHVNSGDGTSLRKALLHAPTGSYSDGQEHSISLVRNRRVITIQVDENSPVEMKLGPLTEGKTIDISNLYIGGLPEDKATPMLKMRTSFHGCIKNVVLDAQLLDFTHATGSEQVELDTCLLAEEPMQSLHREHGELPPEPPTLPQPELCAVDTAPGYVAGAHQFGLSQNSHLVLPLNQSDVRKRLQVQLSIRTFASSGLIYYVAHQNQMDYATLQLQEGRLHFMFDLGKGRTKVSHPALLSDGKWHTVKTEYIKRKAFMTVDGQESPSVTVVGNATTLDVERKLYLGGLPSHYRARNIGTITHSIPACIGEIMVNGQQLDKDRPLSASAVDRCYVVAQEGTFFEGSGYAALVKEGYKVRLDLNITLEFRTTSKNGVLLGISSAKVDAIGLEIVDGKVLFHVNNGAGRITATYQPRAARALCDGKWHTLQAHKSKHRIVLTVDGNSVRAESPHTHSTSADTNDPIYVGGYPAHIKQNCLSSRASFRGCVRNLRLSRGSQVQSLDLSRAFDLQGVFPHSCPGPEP

The target in this test is mouse laminin‐I (mouse). Description: BLI. The following applies: ligand; chains chain.

“recombinant human netrin‐1 (R&D), on HIS1K biosensors (from UniProt O95631 25-604)” showed a Kd of 2.95 nM.
